The entries are a selection whose mix differs from that of the whole data set. Entries with a potency or affinity are not part of this list. Activity calls are given as the source filed them.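 Rule for the calls: active = compounds whose percent cytotoxicity in the single-dose primary screen, scaled between solvent and toxic-drug controls, exceeds 50; inactive = the rest.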

A short description of this assay: cytotoxicity in KRAS-transformed pancreatic duct cells, primary screen, cell-based, fluorescence, HTS (AID 431).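 Note: 0% = DMSO solvent wells and 100% = doxorubicin-treated wells.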 The settings on record: HPDE-C7K KRASV12 cells, Alamar Blue viability, 48 h; at 10 µM; active compounds read high.
With `COc1ccc(NC2CCN(CCc3ccccc3)CC2)c(OC)c1`, the cytotoxicity is inactive: 27.9%.
Take `O=C(OC1CN2CCC1CC2)C1c2ccccc2Oc2ccccc21` (stereo unspecified): the cytotoxicity is inactive: -0.2%.
Take `N#CC1(Nc2ccccc2)CCN(CCc2ccccc2)CC1`: the cytotoxicity is inactive: 4%.
Next, `CCC(CO)(C(=O)OC1CN2CCC1CC2)c1ccccc1` (stereo unspecified): inactive: -5.1%; `CCOc1ncccc1C(=O)NCC1(N2CCOCC2)CCCCC1`: inactive: 10.6%.
Take `Fc1ccccc1NC1CCN(Cc2ccccc2)CC1`: the cytotoxicity is inactive: 8.8%.

Values taken from PubChem BioAssay AID431 (Sanford-Burnham Center for Chemical Genomics, 2006).
